Results published in patent US6534516B1, “Androgen receptor modulator compounds and methods” (Ligand Pharmaceuticals Incorporated, priority 1996, dated 2003).

The chains behind the UniProt entries cited, without tags or fusion partners. Where a name states a change or a piece, a line headed by the entry shows the natural chain unless it says otherwise.
UniProt P10275: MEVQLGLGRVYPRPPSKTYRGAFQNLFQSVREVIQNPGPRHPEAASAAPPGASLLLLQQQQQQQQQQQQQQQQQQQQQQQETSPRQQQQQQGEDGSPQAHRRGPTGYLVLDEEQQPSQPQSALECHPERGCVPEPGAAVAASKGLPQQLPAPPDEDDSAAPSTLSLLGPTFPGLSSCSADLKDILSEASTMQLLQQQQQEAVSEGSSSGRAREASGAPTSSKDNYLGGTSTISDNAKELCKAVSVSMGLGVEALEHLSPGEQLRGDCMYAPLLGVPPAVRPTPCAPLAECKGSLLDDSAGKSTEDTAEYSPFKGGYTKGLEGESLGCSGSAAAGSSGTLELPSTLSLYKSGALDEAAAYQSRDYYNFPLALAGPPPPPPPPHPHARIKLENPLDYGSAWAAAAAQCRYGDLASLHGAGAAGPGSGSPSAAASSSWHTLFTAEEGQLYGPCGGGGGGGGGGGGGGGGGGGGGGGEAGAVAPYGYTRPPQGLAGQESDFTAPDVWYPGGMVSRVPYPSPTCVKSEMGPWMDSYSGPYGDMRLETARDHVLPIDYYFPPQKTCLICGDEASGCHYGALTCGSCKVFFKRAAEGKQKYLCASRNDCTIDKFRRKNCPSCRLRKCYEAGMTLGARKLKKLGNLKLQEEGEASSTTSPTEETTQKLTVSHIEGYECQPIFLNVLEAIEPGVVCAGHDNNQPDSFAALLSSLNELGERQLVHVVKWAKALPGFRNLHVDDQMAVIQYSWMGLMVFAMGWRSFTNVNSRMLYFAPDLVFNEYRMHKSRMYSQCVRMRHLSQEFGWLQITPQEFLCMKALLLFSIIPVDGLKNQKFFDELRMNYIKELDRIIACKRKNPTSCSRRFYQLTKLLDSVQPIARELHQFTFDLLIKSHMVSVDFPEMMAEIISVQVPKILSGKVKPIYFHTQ

How the values were obtained:
[1] = tested on: immature castrated male rat; test: Immature castrated male rat model with testosterone silastic implant, ventral prostate and seminal vesicle weights; type: in vivo; conditions: for Seminal Vesicles weight / Ventral Prostate weight: 3 days
human AR = human AR (Homo sapiens, UniProt P10275)

Compound	Seminal Vesicles weight ([1]; T implant + 0.1 mg/kg oral)	Ventral Prostate weight ([1]; T implant + 0.1 mg/kg oral)	Seminal Vesicles weight ([1]; T implant + 1 mg/kg oral)	Ventral Prostate weight ([1]; T implant + 1 mg/kg oral)	Seminal Vesicles weight ([1]; T implant + 3 mg/kg oral)	Ventral Prostate weight ([1]; T implant + 3 mg/kg oral)	Seminal Vesicles weight ([1]; T implant + 10 mg/kg oral)	Ventral Prostate weight ([1]; T implant + 10 mg/kg oral)	Seminal Vesicles weight ([1]; T implant + 30 mg/kg oral)	Ventral Prostate weight ([1]; T implant + 30 mg/kg oral)	Seminal Vesicles weight ([1]; T implant + 100 mg/kg oral)	Ventral Prostate weight ([1]; T implant + 100 mg/kg oral)	suppression of ventral prostate weight relative to castrate levels (in words) ([1]; 30 mg/kg)	suppression of seminal vesicle weight relative to castrate levels (in words) ([1]; 100 mg/kg)	suppression of ventral prostate weight relative to castrate levels (in words) ([1]; 100 mg/kg)	AR Antagonist CV-1 Cells Efficacy (human AR) [%]
CC(O)(CS(=O)(=O)c1ccc(F)cc1)C(=O)Nc1ccc(C#N)c(C(F)(F)F)c1 (stereo not shown) [Casodex]	31.6 ± 1.4 (5) mg/100 g body weight	76.9 ± 3.7 (5) mg/100 g body weight	31.1 ± 0.8 (5) mg/100 g body weight	74.0 ± 6.7 (5) mg/100 g body weight	27.0 ± 1.0 (5) mg/100 g body weight	65.8 ± 2.2 (5) mg/100 g body weight	19.5 ± 1.2 (5) mg/100 g body weight	50.7 ± 0.9 (5) mg/100 g body weight	12.0 ± 1.9 (5) mg/100 g body weight	37.4 ± 3.1 (5) mg/100 g body weight	8.7 ± 1.0 (5) mg/100 g body weight	29.4 ± 1.8 (5) mg/100 g body weight				
CC1(C)CCc2cc3c(C(F)(F)F)cc(=O)[nH]c3cc2N1 [LG120907, 1,2,3,4-Tetrahydro-2,2-dimethyl-6-trifluoromethyl-8-pyridono[5,6-g]quinoline]													only partially efficacious	does not bring the organ weight to castrate levels	suppression to castrate levels	74 ± 2
